# OPERA 2.9 data: vapor pressure values

Source: data files of OPERA 2.9 (Mansouri et al.), github.com/kmansouri/OPERA.

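OPERA's authors assembled the values from existing databases and did not measure them anew. One number stands for a compound and property, with no spread given. Method and conditions are not stated for these values. A value may pool stereoisomers or salt forms, and the file does not say which form was measured. Some upstream entries may be estimates or bounds without being marked so.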

Vapor pressures (log10 mmHg) refer to near room temperature, 15 to 30 °C; higher is more volatile.
"n/a" marks a cell with nothing listed here.

vapor pressure (log10 mmHg) | SMILES | name
-7.011 | Cc1c(Cl)cc(-c2ccc(O)nn2)cc1Cl | Diclomezine
-7.307 | O=C([O-])C(O)C(O)C(=O)[O-].[K+].[K+] (stereo not drawn) | Potassium tartrate
-9.907 | CC(=O)N1CCN(c2ccc(O)cc2)CC1 | 4-(4-Acetylpiperazin-4-yl)phenol
-3.975 | Clc1cccc(-c2ccc(Cl)c(Cl)c2)c1 | 3,3',4-Trichlorobiphenyl
-2.023 | OCC(O)CS (stereo not drawn) | 1-Thioglycerol
-3.272 | CCOc1ccc(C(=O)O)cc1 | Benzoic acid, 4-ethoxy-
-7.444 | CC[C@@]12CC[C@H]3C4=C(CC[C@@H]3[C@H]1CC[C@H]2O)CC(OC)=CC4 (racemic) | n/a
0.206 | CCOCCC(=O)OCC | Ethyl 3-ethoxypropionate
-3.084 | O=CCCC=C1CC2CC1C1CCCC21 (stereo not drawn) | 4-(Octahydro-5H-4,7-methanoinden-5-ylidene)butanal
0.951 | C=C[Si](OC)(OC)OC | Vinyltrimethoxysilane
-3.745 | Clc1ccc(-c2cccc(Cl)c2Cl)cc1 | 2,3,4'-Trichlorobiphenyl
2.581 | CCC(F)(OC(F)(F)F)C(F)(F)F (stereo not drawn) | 1,1,1,2-Tetrafluoro-2-(trifluoromethoxy)butane
-4.648 | CCC(C)=NO[Si](ON=C(C)CC)(ON=C(C)CC)c1ccccc1 | Phenyltris(butanoxime)silane
-7.654 | O=S(=O)([O-])C(O)CCCC(O)S(=O)(=O)[O-].[Na+].[Na+] (stereo not drawn) | 1,5-Dihydroxy-1,5-pentanedisulfonic acid, disodium salt
-2.418 | Cc1cc(C)[nH]n1 | 3,5-Dimethylpyrazole
-9.319 | COc1ccc(C(OC[C@H]2O[C@@H](n3ccc(NC(=O)c4ccccc4)nc3=O)C[C@@H]2O)(c2ccccc2)c2ccc(OC)cc2)cc1 | n/a
-5.385 | Clc1cc(Cl)c(Cl)c(-c2cc(Cl)c(Cl)c(Cl)c2Cl)c1 | 2,2',3,3',4,5,5'-Heptachlorobiphenyl
-3.347 | CCCCCCCCCC=CCC1CC(=O)OC1=O (stereo not drawn) | (2-Dodecenyl)succinic anhydride
2.424 | CCOC(F)(F)C(F)(F)C(F)(F)F | Ethyl heptafluoropropyl ether
-1.137 | CC(=O)O[C@@H]1CCCC[C@@H]1C(C)(C)C (relative stereo) | cis-2-tert-Butylcyclohexyl acetate
-1.7 | C=C[Si](OC(C)=O)(OC(C)=O)OC(C)=O | Ethenylsilanetriyl triacetate
-3.504 | Clc1cc(Cl)c2cc(Cl)cc(Cl)c2c1 | n/a
-1.497 | C[Si](Cl)(Cl)C1CCCCC1 | Dichloro(cyclohexyl)methylsilane
-10.15 | Cc1cc(Cc2cc(C)cc(C3CCCCC3)c2O)c(O)c(C2CCCCC2)c1 | 2,2'-Methanediylbis(6-cyclohexyl-4-methylphenol)
-4.935 | O=C=NCCCCCCn1c(=O)n(CCCCCCN=C=O)c(=O)n(CCCCCCN=C=O)c1=O | n/a
-5.652 | OCCOc1ccc2ccccc2c1 | 2-(2-Naphthalenyloxy)ethanol
-4.694 | CCCCC(CC)COC(=O)COc1ccc(Cl)cc1C (stereo not drawn) | 2-Ethylhexyl (4-chloro-2-methylphenoxy)acetate
1.578 | C[Si](C)(C)CCl | Silane, (chloromethyl)trimethyl-
-5.475 | Clc1cc(-c2c(Cl)ccc(Cl)c2Cl)cc(Cl)c1Cl | 2,3,3',4',5',6-Hexachlorobiphenyl
-4.085 | COc1c(Cl)cccc1Cl | 2,6-Dichloroanisole
0.744 | COc1cc(C(F)(F)F)ccn1 | Pyridine, 2-methoxy-4-(trifluoromethyl)-
-4.954 | [N-]=[N+]=C1C=C(S(=O)(=O)[O-])c2ccccc2C1=O.[Na+] | n/a
-0.759 | CCN1CCCC1=O | 1-Ethyl-2-pyrrolidinone

The last 4 entries again:

SMILES	name	vapor pressure (log10 mmHg)
COc1c(Cl)cccc1Cl	2,6-Dichloroanisole	-4.085
COc1cc(C(F)(F)F)ccn1	Pyridine, 2-methoxy-4-(trifluoromethyl)-	0.744
[N-]=[N+]=C1C=C(S(=O)(=O)[O-])c2ccccc2C1=O.[Na+]	n/a	-4.954
CCN1CCCC1=O	1-Ethyl-2-pyrrolidinone	-0.759